Assay results reported in patent US12049482B2, “Molecular switch-mediated control of engineered cells” (THE GENERAL HOSPITAL CORPORATION, priority 2017, dated 2024).

Chains of the proteins cited; added tags and fusions are not shown. A change or cut given only in a name is not applied to a line headed by its entry. Chains listed by the source or under a name are the forms on record and can include a tag or linker.
UniProt Q96SW2: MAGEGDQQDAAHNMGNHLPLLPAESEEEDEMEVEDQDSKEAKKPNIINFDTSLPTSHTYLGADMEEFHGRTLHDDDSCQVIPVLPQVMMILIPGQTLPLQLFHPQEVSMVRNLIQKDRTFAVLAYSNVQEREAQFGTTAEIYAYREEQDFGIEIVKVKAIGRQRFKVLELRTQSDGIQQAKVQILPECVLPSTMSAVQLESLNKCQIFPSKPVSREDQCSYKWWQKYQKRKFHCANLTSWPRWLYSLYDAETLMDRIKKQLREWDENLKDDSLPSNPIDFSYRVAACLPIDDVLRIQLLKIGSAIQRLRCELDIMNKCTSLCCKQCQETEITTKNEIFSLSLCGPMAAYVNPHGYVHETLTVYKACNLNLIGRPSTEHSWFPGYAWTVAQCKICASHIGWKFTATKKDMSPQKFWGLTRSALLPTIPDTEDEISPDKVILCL
CRBN (Homo sapiens, UniProt Q96SW2), as listed by the source partner: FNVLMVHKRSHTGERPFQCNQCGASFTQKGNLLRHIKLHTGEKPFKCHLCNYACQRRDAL

Legend:
CRBN = CRBN (Homo sapiens, UniProt Q96SW2); experiment: Internalization and degradation of CD28-degron-GFP in 293T cells; type: cell-based; set-up: endogenous in cells; host or cells: 293T (CRBN endogenous; control cells 293T-CRBNΔe5 lack it)
Description: (§1) Transduced cells were incubated with a range of Pomalidomide concentrations or DMSO for 20 hours. Cells were analyzed by flow cytometry for eGFP and mCherry fluorescence. 1000 mCherry+ cells were analyzed per sample, and the geometric mean of the per-cell eGFP/mCherry ratio was calculated in Flowjo. In Pomalidomide dose titration studies, the EC50 was calculated by non-linear regression in Prism. Experiments were performed in triplicate. In some cases cell surface protein expression was assayed in parallel with the above reporter assay; cells were stained with anti-CD28-BV421 antibody (BD Biosciences 562613) at a 1:50 dilution in FACS buffer (PBS+2% FCS+2 mM EDTA) for 10 minutes on ice. Cells were washed with FACS buffer and analyzed by flow cytometry.
As shown in FIG. 13 an OFF-switch CAR construct was designed that presents an engineered element capable of causing intracellular degradation of the CAR in a precise, input-responsive manner. The input-responsive element is referred to as an “engineered degron,” and the input to which the degron responds in certain aspects of the instant disclosure is an IMiD (e.g., pomalidomide).

CRL4^CRBN = target: T1, CRL4^CRBN (Homo sapiens, UniProt Q96SW2); experiment: GFP/mCherry reporter assay for degradation of degron-eGFP fusion proteins in Jurkat T cells; type: cell-based; conditions: by 3 hours after addition of 1 μM pomalidomide
T1 construct: endogenous in cells; host or cells: Jurkat T cells (ligase endogenous; degron-eGFP reporters lentivirally transduced)
Description: First, the FMC63 anti-CD19 scFv was exchanged for the CD28 Ig-like V-type extracellular domain. […] Experiments were performed in triplicate.
as §1, with “Transduced cells were incubated with a range of Pomalidomide concentrations or DMSO for 20 hours.” left out
First, the FMC63 anti-CD19 scFv was exchanged for the CD28 Ig-like V-type extracellular domain.

| degradation (normalized GFP signal) (CRBN; 10 μM pomalidomide, 293T cells expressing wild-type CRBN) | degradation of degron-eGFP protein (CRL4^CRBN) [%] | Substance | cell surface internalization (CRBN; 20h pomalidomide treatment) |
| --- | --- | --- | --- |
| dramatic degradation effect | – | CD28-degron: In frame fusion of full length CD28, a SG linker, and IKZF3 (amino acids 130-189); SEQ ID NO: 82 | internalized upon treatment with pomalidomide in a CRBN-dependent manner |
| – | ~80 | CD28-CD3ζ-degron: Fusion of full length CD28, intracellular domain of CD3z and IKZF3 (amino acids 130-189); SEQ ID NO: 83 | – |
